Earlier results, collected in publication PMC8380238, “Structure-based virtual screening of CYP1A1 inhibitors: towards rapid tier-one assessment of potential developmental toxicants” (Archives of Toxicology, 2021).

Test system: human CYP1A1
Settings: NVS_ADME_hCYP1A1; values appear to be log10; ref ToxCast; cited from earlier work

## CC(C)OP(=S)(OC(C)C)SCCNS(=O)(=O)c1ccccc1
  AC50: -0.2589
